The list shows a part of the results, in another mix than the full data. Activity calls are given as the source filed them.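 How the source made its calls: active means response above a set limit, near 3 SD of response in nonfluorescent compounds (cut at about 42% in these data); inactive means the rest.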
These compounds were tested against Beta-2 adrenergic receptor (Homo sapiens) (UniProt P07550) (assay: agonist-induced loss of surface beta2AR – cell-based, FAP fluorogen, flow cytometry, primary screen (AID 504454)). Conditions: Am2.2-beta2AR cells, FAP receptor internalization, hits give high values, concentration not given here.

Chains of the proteins cited; added tags and fusions are not shown.
UniProt P07550, whole entry: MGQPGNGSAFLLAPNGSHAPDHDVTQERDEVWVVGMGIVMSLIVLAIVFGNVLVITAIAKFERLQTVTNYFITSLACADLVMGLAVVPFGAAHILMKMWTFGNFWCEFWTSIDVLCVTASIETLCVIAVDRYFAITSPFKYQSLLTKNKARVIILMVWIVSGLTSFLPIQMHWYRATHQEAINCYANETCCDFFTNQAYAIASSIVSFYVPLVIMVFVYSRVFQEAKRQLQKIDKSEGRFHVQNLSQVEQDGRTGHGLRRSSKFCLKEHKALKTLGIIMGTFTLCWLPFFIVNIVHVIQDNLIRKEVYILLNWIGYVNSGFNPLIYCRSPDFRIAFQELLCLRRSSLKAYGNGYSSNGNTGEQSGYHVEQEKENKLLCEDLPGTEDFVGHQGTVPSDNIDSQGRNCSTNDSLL

| Structure (SMILES) | response |
| --- | --- |
| CC(=O)Nc1ccc(Oc2c([N+](=O)[O-])cc([N+](=O)[O-])cc2[N+](=O)[O-])cc1 | inactive: 12.3% |
| CC(=O)c1ccc(N2CC2c2ccncc2)cc1 (configuration not stated) | inactive: -0.98% |
| N#C/C(=C\c1ccc(N(CCBr)CCBr)cc1)C(N)=O | inactive: 10.7% |
| COC(=O)C1(C)COP(=O)(NCc2ccccc2)OC1 (configuration not stated) | inactive: -4.65% |
| O=C(OC1CN2CCC1CC2)c1ccc([N+](=O)[O-])cc1 (configuration not stated) | inactive: 0.83% |
| O=C(OCCN1CCN(CCOCc2ccccc2)CC1)C(O)(c1ccccc1)c1ccccc1 | inactive: -9.25% |
| Cc1ccccc1CN(C)C(=O)COC(=O)C(O)(c1ccccc1)c1ccccc1 | inactive: -9.91% |
| C[C@H]1OP(=O)(Oc2ccccc2)C[C@@H]2O[C@@H]21 (some centres not stated) | inactive: 1.22% |
| C[C@@H]1C=CCP(=O)(Oc2ccccc2)O1 (some centres not stated) | inactive: -0.25% |
| CCc1cc(O)c([N+](=O)[O-])c(C)c1[N+](=O)[O-] | inactive: -2.54% |
| CP(=O)(Nc1ccccc1F)Oc1ccccc1 (configuration not stated) | inactive: 5.63% |
| CC(C)(C)C(=O)NC(Sc1ccccc1)C(Cl)(Cl)Cl (configuration not stated) | inactive: -1.33% |
| CC(C)c1ccc(OP(C)(=O)Nc2ccc(SC(F)(F)F)cc2)cc1 (configuration not stated) | inactive: -2.94% |
| O=P1(Nc2nc3ccc(Cl)cc3s2)COc2ccccc2O1 (configuration not stated) | inactive: -2.66% |
| CCOc1ccc(C2=NCC(CBr)S2)cc1 (configuration not stated) | inactive: 1.71% |
| Cc1ccccc1NP(C)(=O)Nc1ccccc1C | inactive: -1.14% |
| CP(=O)(Nc1ccc2c(c1)OCCO2)Oc1ccccc1 (configuration not stated) | inactive: -1.23% |
| CCOP(C)(=S)SCC(=O)NC(C)(CC)C(=O)O (configuration not stated) | inactive: 3.68% |
| c1nnnn1CCn1cnnn1 | inactive: -6.55% |
| CP(=O)(Nc1ccc(SC(F)(F)F)cc1)Oc1ccc(F)cc1 (configuration not stated) | inactive: -3.2% |
| O=P(Nc1nccs1)(c1ccccc1)c1ccccc1 | inactive: 5.51% |
| CC(C)C(=O)NC(Sc1ccccc1)C(Cl)(Cl)Cl (configuration not stated) | inactive: -5.34% |
| Cc1c(C(c2ccc3c(c2)OCO3)c2c(C)n(C)n(-c3ccccc3)c2=O)c(=O)n(-c2ccccc2)n1C.O=[N+]([O-])c1cc([N+](=O)[O-])c(O)c([N+](=O)[O-])c1 | inactive: -3.66% |

| Structure (SMILES) | response |
| --- | --- |
| C(Cc1nn[nH]n1)Cc1nn[nH]n1 | inactive: 2.87% |
| Nc1ccc([As](=O)(O)c2ccc([N+](=O)[O-])cc2)cc1 | inactive: 2.59% |
| O=C(OC1CN2CCC1CC2)c1cccc(Cl)c1 (configuration not stated) | inactive: -1.03% |
| O=[N+]([O-])c1ccc(OP2(=O)COCCO2)cc1 (configuration not stated) | inactive: -4.66% |
| CC(=O)NC(SC(=S)N(C)C)C(Cl)(Cl)Cl (configuration not stated) | inactive: 1.02% |
| O=[N+]([O-])c1ncn(CCn2cnc([N+](=O)[O-])n2)n1 | inactive: 4.27% |
| O=[N+]([O-])c1ccc(O)c(/C=N/Nc2ccc([N+](=O)[O-])cc2[N+](=O)[O-])c1 | inactive: 31% |
| O=[As](O)(c1ccccc1)c1ccc(O)cc1 | inactive: -1.26% |
| Cc1cc(-c2cccc3ccccc23)c(C)cn1.O=[N+]([O-])c1cc([N+](=O)[O-])c(O)c([N+](=O)[O-])c1 | inactive: 9.63% |
| O=[N+]([O-])c1cc([N+](=O)[O-])c(NCC2CCS(=O)(=O)C2)c([N+](=O)[O-])c1 (configuration not stated) | inactive: 2.83% |
| O=P(Nc1nc2ccccc2s1)(c1ccccc1)c1ccccc1 | inactive: 5.76% |
| CN(C)CCOC(=O)C(O)(c1ccccc1)C1CCCCC1 (configuration not stated) | inactive: 7.99% |
| C[C@H]1OP(=O)(Oc2ccccc2)[C@H](O)[C@H](O)[C@H]1N=[N+]=[N-] (some centres not stated) | inactive: 0.52% |
| COc1ccc(NP(C)(=O)Oc2ccccc2OC)cc1 (configuration not stated) | inactive: 2.32% |
| COc1ccc(OP(C)(=O)Nc2cccc(Br)c2)cc1 (configuration not stated) | inactive: -1.03% |
| COc1ccc(N)c([N+](=O)[O-])c1[N+](=O)[O-] | inactive: -0.7% |
| CN(C)C1(CNC(=O)c2ccc(Cl)c(S(N)(=O)=O)c2)CCCCC1 | inactive: 16.1% |
| O=P(Nc1ccccn1)(c1ccc(Br)cc1)c1ccc(Br)cc1 | inactive: 9.77% |
| Cc1ccc(OCC(=O)OC2CN3CCC2CC3)cc1 (configuration not stated) | inactive: -2.09% |
| O=[As](O)(c1cccs1)c1cccs1 | inactive: -0.09% |
| NS(=O)(=O)c1cccc(NC(=O)COC(=O)C(O)(c2ccccc2)c2ccccc2)c1 | inactive: -1.32% |
| O=P1(Nc2ccc(Br)cn2)COc2ccccc2OC1 | inactive: 2.4% |
| CCCOc1ccc(NP(C)(=O)Oc2ccc(Cl)cc2)cc1 (configuration not stated) | inactive: -11.3% |

| Structure (SMILES) | response |
| --- | --- |
| CP(=O)(Nc1ccc(SC(F)(F)F)cc1)Oc1ccccc1 (configuration not stated) | inactive: 2.71% |
| Nc1cccc([As](=O)(O)c2ccccc2)c1 | inactive: 2.9% |
| CN1CCCCC1COC(=O)C1(O)c2ccccc2CCc2ccccc21 (configuration not stated) | inactive: 16.2% |
| COc1ccccc1OP(C)(=O)Nc1c(C)cccc1C (configuration not stated) | inactive: -2.22% |
| O=P1(Nc2ncccn2)COc2ccccc2OC1 | inactive: 8.5% |
| O=C(/C=C/c1ccccc1)OC1CN2CCC1CC2 (configuration not stated) | inactive: -5.67% |
| CCCC1OP(=O)(Nc2ccccc2)OCC1CC (configuration not stated) | inactive: 0.14% |
| CC1=C2N=C(C=C3N=C(C(C)=C4[N-][C@@](C)([C@@H]5N=C1[C@](C)(CCC(=O)NC[C@@H](C)OP(=O)([O-])O[C@H]1[C@@H](O)[C@@H](n6cnc7cc(C)c(C)cc76)O[C@@H]1CO)[C@H]5CC(N)=O)[C@@](C)(CC(N)=O)[C@@H]4CCC(N)=O)[C@@](C)(CC(N)=O)[C@@H]3CCC(N)=O)C(C)(C)[C@@H]2CCC(N)=O.[C-]#N.[Co+3] | inactive: -4.31% |
| CN(C)C1(CNC(=O)c2ccc(S(C)(=O)=O)cc2)CCCCC1 | inactive: 0.36% |
| O=[N+]([O-])c1cc([N+](=O)[O-])c(Nc2nnnn2CCO)c([N+](=O)[O-])c1 | inactive: 4.6% |
| CCOC(=O)C(CC)C1=NC(C)(C)Cc2ccccc21.O=[N+]([O-])c1cc([N+](=O)[O-])c(O)c([N+](=O)[O-])c1 (configuration not stated) | inactive: 2.34% |
| COc1cc(C2NCCC3(OCCO3)C2(C)C)cc(OC)c1OC.O=[N+]([O-])c1cc([N+](=O)[O-])c(O)c([N+](=O)[O-])c1 (configuration not stated) | inactive: 11.2% |
| Cc1nn(-c2ccccc2)c2c1P(=O)(N1CCOCC1)N(C)C(c1ccccc1)=N2 (configuration not stated) | inactive: -0.01% |
| Cc1ccc(C(=O)OC2CN3CCC2CC3)cc1 (configuration not stated) | inactive: -0.58% |
| CC1CCC(C(C)C)C(OP(=O)(Nc2ccccn2)c2ccccc2)C1 (configuration not stated) | inactive: 17.5% |
| CC1(CBr)Cn2c(nc3ccccc3c2=O)S1 (configuration not stated) | inactive: -10.8% |
| Cc1nc2ccc3ccccc3c2s1.O=[N+]([O-])c1cc([N+](=O)[O-])c(O)c([N+](=O)[O-])c1 | inactive: -2.15% |
| CN(C(=O)Cc1ccc(Cl)c(Cl)c1)[C@@H]1CCCC[C@H]1N1CCCC1 | inactive: -9.17% |
| CC(C)/C=N\N=C(\N)N[N+](=O)[O-] | inactive: 1.08% |
| COc1ccccc1CNC(=O)COC(=O)C(O)(c1ccccc1)c1ccccc1 | inactive: 7.62% |
| O=[N+]([O-])c1cc([N+](=O)[O-])c(-c2cnn(-c3ccccc3)c2)c([N+](=O)[O-])c1 | inactive: -4.13% |
| Clc1n[nH]nc1-c1nn[nH][15n]1 | inactive: 3.05% |
| CC(C)(C)C(=O)NC(Sc1ncccn1)C(Cl)(Cl)Cl (configuration not stated) | inactive: 2.16% |

| Structure (SMILES) | response |
| --- | --- |
| CCOP(=O)(Nc1ccc(C)cn1)OCC | inactive: 2.07% |
| CCC1=CC2Cc3nc4ccc(Cl)cc4c(N)c3C(C1)C2 (configuration not stated) | inactive: 17.9% |
| O=P1(Nc2ccccn2)COc2ccccc2OC1 | inactive: 14.2% |
| O=[N+]([O-])c1cc([N+](=O)[O-])c(-n2nnc3ccccc32)c([N+](=O)[O-])c1 | inactive: -0.11% |
| CCOP(=O)(NC(=NC(C)c1ccccc1)NC(C)c1ccccc1)OCC (configuration not stated) | inactive: 3.78% |
| CCOP(=O)(Nc1cccc2ccccc12)OCC | inactive: -5.98% |
| Cc1ccc(C)c(NP(C)(=O)Oc2ccccc2)c1 (configuration not stated) | inactive: -0.45% |
| CCCOP(=S)(Nc1nc(N)cc(=O)[nH]1)OCCC | inactive: -8.25% |
| Cc1cc(C)cc(OP(C)(=O)Nc2ccccn2)c1 (configuration not stated) | inactive: 8.36% |
| CP(=O)(Nc1cccc(Br)c1)Oc1ccccc1 (configuration not stated) | inactive: -4.26% |
| Cc1ccc(NCCc2c([N+](=O)[O-])cc([N+](=O)[O-])cc2[N+](=O)[O-])cc1 | inactive: 7.42% |
| Nc1cccc2c([As](=O)(O)O)cccc12 | inactive: -6.36% |
| CCOC(=O)c1ccc(NP(C)(=O)Oc2cc(C)cc(C)c2)cc1 (configuration not stated) | inactive: -27.4% |
| Cc1cccc(OCC(=O)OC2CN3CCC2CC3)c1 (configuration not stated) | inactive: -5.49% |
| O=[As](O)(c1cccc(O)c1)c1cccc(O)c1 | inactive: -0.59% |
| Cc1cc(C)cc(OP(C)(=O)Nc2ccc(C)cc2C)c1 (configuration not stated) | inactive: -1.86% |
| O=[As](O)(O)c1cccnc1 | inactive: 3.28% |
| COc1cc(C(=O)NCC2(N3CCOCC3)CCCCC2)cc(Cl)c1OC(C)C | inactive: -1.41% |
| COc1ccccc1OP(C)(=O)Nc1cccc(Br)c1 (configuration not stated) | inactive: 18.5% |
| CS(=O)(=O)c1ccc(Cl)c(NC(=O)COC(=O)C(O)(c2ccccc2)c2ccccc2)c1 | inactive: 7.36% |
| O=C(OC1CN2CCC1CC2)c1ccc(Cl)cc1 (configuration not stated) | inactive: 1.49% |
| O=[N+]([O-])c1ccc2c(c1)nnn2O | inactive: -6.17% |
| CC1=NCCc2c1[nH]c1ccccc21.O=[N+]([O-])c1cc([N+](=O)[O-])c(O)c([N+](=O)[O-])c1 | active: 60% |

— PubChem BioAssay AID504454 (NMMLSC, 2011)
